{"source": "paper PMC10293653", "about": "(International Journal of Biological Macromolecules, 2023)", "biological_target": "Mpro of SARS-CoV-2 (Severe acute respiratory syndrome coronavirus 2, UniProt P0DTD1)", "assay": "Main protease", "assay_type": "biochemical", "conditions": "5uM"}
{"smiles": "CC(C)(C)OC(=O)Nc1cccn([C@@H](CC2CC2)C(=O)N[C@@H](C[C@@H]2CCNC2=O)C(=O)C(=O)NCc2ccccc2)c1=O", "note": "[Mpro-13b]", "values": [{"measurement": "inhibition of Mpro", "result": "> 80", "unit": "%"}]}
